Results: US20260250410A1 (SICHUAN HUIYU PHARMACEUTICAL, published 2026)
Each block holds one binder with its values, some of them ahead of it.

What was measured:
[1] = molecular target: T1, HuCDCP1-C (human, UniProt Q9H5V8 30-667); test: ELISA, coated antigen
T1 construct: range 30-667; expressed in HEK-293T, purified by Fc/his tag; also called human CDCP1-C; full-length extracellular domain of human CDCP1; not shown: Fc or his tag
T1 sequence (looked up): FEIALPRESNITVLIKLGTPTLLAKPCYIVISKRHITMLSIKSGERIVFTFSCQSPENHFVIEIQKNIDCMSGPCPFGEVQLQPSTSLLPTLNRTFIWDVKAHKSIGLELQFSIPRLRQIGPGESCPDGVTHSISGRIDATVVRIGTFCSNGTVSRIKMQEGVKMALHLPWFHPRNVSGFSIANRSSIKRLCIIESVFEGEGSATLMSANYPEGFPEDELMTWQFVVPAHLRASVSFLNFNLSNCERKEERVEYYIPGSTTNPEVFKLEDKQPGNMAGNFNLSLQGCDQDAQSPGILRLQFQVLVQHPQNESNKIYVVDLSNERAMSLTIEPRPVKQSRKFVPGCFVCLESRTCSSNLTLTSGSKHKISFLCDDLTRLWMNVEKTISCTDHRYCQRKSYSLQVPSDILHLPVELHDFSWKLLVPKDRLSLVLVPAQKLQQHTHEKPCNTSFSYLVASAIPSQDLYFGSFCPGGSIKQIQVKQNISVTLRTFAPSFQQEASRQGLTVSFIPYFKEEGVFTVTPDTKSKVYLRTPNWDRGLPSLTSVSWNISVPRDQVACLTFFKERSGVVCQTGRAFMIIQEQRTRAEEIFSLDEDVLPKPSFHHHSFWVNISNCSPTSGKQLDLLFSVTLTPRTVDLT
Method: (§1) The candidate antibodies obtained from Example 6 were subjected to gene cloning, constructed into an expression vector for a small amount of expression in CHO cells, and purified with an Fc affinity column (AT Protein A Diamond Plus. No. AA402312). Antibody purity was analyzed by HPLC and determined by Nanodrop. High-throughput affinity assay was carried out for a small amount of antibodies by Caterra. Specifically, human CDCP1 antigen (2 μg/ml) was immobilized to assay antibody binding, and antibodies to be tested (antibodies diluted to the highest concentration of 150 nM, with a 3-fold dilution across 5 concentration points, which were respectively 1.85, 5.55, 16.67, 50, 150 nM) were allowed to flow through the detection chip respectively by Caterra, and data analysis was performed with Kinetics software. At the same time, 2 μg/ml antigen human CDCP1-C and 2 μg/ml human CDCP1-B were used for coating, and the antigen-antibody binding capacity was tested by ELISA for verification.

[2] = molecular target: T2, huCDCP1-his (human, UniProt Q9H5V8 30-667, limits assumed); test: SPR (Caterra), antigen immobilized
T2 construct: also called human CDCP1 antigen; not shown: his tag
T2 sequence (looked up): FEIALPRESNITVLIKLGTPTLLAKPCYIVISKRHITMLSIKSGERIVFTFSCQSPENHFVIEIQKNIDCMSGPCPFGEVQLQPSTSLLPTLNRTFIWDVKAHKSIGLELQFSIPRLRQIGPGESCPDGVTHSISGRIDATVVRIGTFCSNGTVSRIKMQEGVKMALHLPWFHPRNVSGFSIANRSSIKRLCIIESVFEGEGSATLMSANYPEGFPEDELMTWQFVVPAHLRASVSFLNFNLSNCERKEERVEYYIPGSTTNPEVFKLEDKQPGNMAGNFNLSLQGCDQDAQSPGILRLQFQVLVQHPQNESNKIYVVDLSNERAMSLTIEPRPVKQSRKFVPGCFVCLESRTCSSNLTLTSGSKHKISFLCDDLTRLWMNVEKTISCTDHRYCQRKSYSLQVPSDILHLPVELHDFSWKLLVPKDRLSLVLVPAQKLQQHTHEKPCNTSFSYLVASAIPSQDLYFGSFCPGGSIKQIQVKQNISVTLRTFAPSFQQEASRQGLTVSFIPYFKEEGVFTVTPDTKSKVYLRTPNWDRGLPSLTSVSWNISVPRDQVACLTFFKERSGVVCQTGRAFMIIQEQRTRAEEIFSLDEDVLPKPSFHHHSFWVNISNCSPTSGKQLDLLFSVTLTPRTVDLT
Method: as §1

[3] = molecular target: T1, HuCDCP1-C; test: SPR (Caterra), antigen immobilized
Method: as §1, with “The humanized anti-CDCP1” for “The candidate”, “Example 11” for “Example 6”, “into pTT5” for “into an”, “CHO cells (Expi-CHOS: Gibco A29127),” for “CHO cells,”, “Specifically, HuCDCP1-C” for “Specifically, human CDCP1”, “software.” for “software. At the same time, 2 μg/ml antigen human CDCP1-C and 2 μg/ml human CDCP1-B were used for coating, and the antigen-antibody binding capacity was tested by ELISA for verification.”

[4] = molecular target: T3, HuCDCP1-B (human, UniProt Q9H5V8 343-667); test: ELISA, coated antigen
T3 construct: range 343-667; expressed in HEK-293T, purified by Fc/his tag; also called human CDCP1-B; membrane-proximal region of CDCP1; not shown: Fc or his tag
T3 sequence (looked up): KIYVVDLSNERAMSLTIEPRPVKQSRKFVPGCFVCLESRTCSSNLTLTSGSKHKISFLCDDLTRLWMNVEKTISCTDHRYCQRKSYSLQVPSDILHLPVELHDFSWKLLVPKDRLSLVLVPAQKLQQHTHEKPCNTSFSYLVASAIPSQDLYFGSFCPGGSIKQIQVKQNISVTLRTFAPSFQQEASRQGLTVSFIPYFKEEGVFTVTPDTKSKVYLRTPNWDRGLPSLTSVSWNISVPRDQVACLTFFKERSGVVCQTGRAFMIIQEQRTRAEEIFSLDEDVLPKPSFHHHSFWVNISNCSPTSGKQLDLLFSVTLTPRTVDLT
Method: as §1

B5: 1CP-130 (antibody, human IgG1, kappa, V domains shown)
VH: QVQLVQSGAEVKKPGASVKVSCKASGYNFISYWLHWVRQAPGQGLEWMGGIYPGNTDTTYNQKFKGRVTMTADTSTSTAYMELSSLRSEDTAVYYCIRYDYDRGMDYWGQGTLVTVSS
VL: DIQMTQSPSSLSASVGDRVTITCRASEDIYYRLAWYQQKPGKAPKLLISGATALETGVPSRFSGSGSGKDYTLTISSLQPEDIATYYCQHYWNIPWTFGQGTKVEIKR
notes: humanized 3C11, human IgG1 kappa
Kd [3]: 11.6 nM

B6: SB10 (antibody, V domains shown)
VH: QVTLKESGPGILQPSQTLSLTCSFSGFSLSTSGMGVSWFRQPSGKGLEWLAHIYWDDDKRYNPSLKSRLTISKDTSSNQVFLRITNVDTSDTATYYCTREGSADWEALDYWGQGTSVTVSS
VL: DVLMTQTPLSLSVSLGDQASISCRSSQTIVYSNGNSYLEWYLQKPGQSPKLLIYKVSNRFSGIPDRFSGSGSGTDFTLKISRVEAEDLGIYYCFQSSHVPWTFGGGTKLEIK
notes: single B cell antibody, expressed in CHO
EC50 [1]: 0.03 nM | Kd [2]: 3.68 nM

B7: SB11 (antibody, V domains shown)
VH: EVQLQQSGAELVKPGASVKLSCTASGFNIQDTYILWVKQRPEQGLEWIGGIDPANDNTNYGPNFQGKATITADTSSNTAYLQLSSLTSEDSAVYYCAREDAYPWFAYWGQGTLVTVSS
VL: DIVLTQSPASLAVSLGQRATISCRASQSVSTSSYSYMHWYQLKPGQPPKLLIKYASNLESGVPARFSGSGSGTDFTLNIHPVEEEDAAIYYCQHNWEIPWTFGGGTRLEIK
notes: as for B6
EC50 [1]: 0.038 nM | EC50 [4]: 0.035 nM | Kd [2]: 0.476 nM

B8: SB12 (antibody, V domains shown)
VH: QVQLQQSGAELMKPGASVKISCKATGYTFSRYWVEWVKQRPGHGLEWIGDILPGSDFTNYNEKFKGKATFTADSSSNTAYMQLSSLTSEDSAVYYCARKDYYGNYDYAMDYWGQGTSVTVSS
VL: DVQITQSPSYLAASPGEAITINCRTSKSIGKYLAWYQEKPGKTNKLLIYSGSTLQSGIPSRFSGSGSGTDFTLTITSLEPEDFAMYYCQQHDEYPWTFGGGTKLDIK
notes: as for B6
Kd [2]: 238 nM

B9: SB13 (antibody, V domains shown)
VH: EVKLVESGGGLVQPGGSLRLSCATSGFTFSDFYMEWVRQPPGKRLEWIAVSRDKTNDYTTEYSASMKGRFIVSRDTSQSILYLQMNALRAEDTAIYYCARDGVYYYGSSYTLDYWGQGTSVTVSS
VL: DIVMTQSHKFMSTSVGDRVSITCKASQDVSSSVAWYQQKPGQSPKLLIYWASTRHTGVPDRFTGSGSGTDYTLTISSVQAEDLALYYCQQHYNTPPTFGGGTKLEIK
notes: as for B6
EC50 [1]: 0.048 nM | Kd [2]: 12.4 nM

The remaining lines, values ahead:

EC50 [1]: 0.042 nM | Kd [2]: 11.6 nM
B1: SB15 (antibody, V domains shown)
VH: EVKLVESGGGLVKPGGSLKLSCAASGFTFSSYGMSWVRQTPEKRLEWVATISGGINYTYYRDSVEGRFTISRDNAKNNLYLQMSRLRSEDTALYYCARHDRYDGYYYVMDYWGQGTSVTVSS
VL: DIQMTQSPSSLSASLGERVSLTCRASQEISGYLTWLQQRPDGTIKRLIYAASTLDSGVPKRFSGSRSGSDYSLTISSLESEDFADYYCLQYASYPYTFGGGTKLEIK
notes: as for B6

EC50 [1]: 19.6 nM | Kd [2]: 178 nM
B2: SB16 (antibody, V domains shown)
VH: QVQLQQSGPELVRPGVSVRISCKGSGYPFTDYAIHWVKQGHGKNLEWIGVIAPYSDNTGYNQRFKGKATMTVDKSSSTAYMELARLTSEDSAIYYCAAYGNYGYYTMDYWGQGTSVTVSS
VL: DIQMTQSTSSLSASLGDRVTITCRASQDITNYLNWYQQKPDGTVKLLIYYTSRLHSGVPSRFSGSGSGTDFSLTISNLEQEDIATYFCQQGNTLPWTFGGGTKLEII
notes: as for B6

EC50 [1]: 0.046 nM | Kd [2]: 5.52 nM
B3: SB17 (antibody, V domains shown)
VH: QVTLKESGPGILQPSQTLSLTCSFSGFSLSTSGMSVGWIRQPSGKGLEWLAHIWWNDDKYYNPALKTRLTISKDSSNNQIFLKIASVVTADSATYYCARIGYYYGTYALDYWGPGTSVTVSS
VL: QIVLTQSPALMTASPGEQVTMTCSASSSVSYIHWYQQKSGTSPKRWIYDASKLASGVPARFSGSGSGTSYSLTISSMEAEDAATYYCQQWSSYPLTFGGGTKLELK
notes: as for B6

EC50 [1]: 0.121 nM | Kd [2]: 6.99 nM
B4: SB18 (antibody, V domains shown)
VH: QVTLKESGPGILQPSQTLSLTCSFSGFSLTTSGMNVGWLRQPSGKGLEWLAHIWWNDDKHSNPVLKSRLTISKDTSNNQAFLKIANVVTADSATYYCARLRDGGFAYWGQGTLVTVSA
VL: DIQMTQTTSSLSASLGDRVTISCSASQAISNYLNWYQQKPDGTVKLLIYYTSHLHSGVPSRFSGSGSGTDYSLTISNLEPEDIATYYCQQYSKIPWTFGGGTKLEII
notes: as for B6

EC50 [1]: 0.067 nM | EC50 [4]: 0.056 nM | Kd [2]: 0.497 nM
B10: SB14 (antibody, V domains shown)
VH: QVQLQQSGNEVVKPGASVKLSCKTSGYTFTNYWLQWVKQRPGQGLEWIGEIFPGTGTTYYNEKFKDQATVTIDTSSSTAYIHLSSLTSEDSAVYFCARTNWEGYYFDYWGQGTTLTVSS
VL: ENVLTQSPAIMSASSGEKVTMTCRASSSVRSSYLHWYQQKSGASPKVWIYSTSNLASGVPVRFSGSGSGTSYSLTISSVEAEDAATYYCQQYSGSPSWTFGGGTKLEIK
notes: as for B6
